KDM4E inh: JMJD2E (human) inhibition; JMJD2E catalytic domain, FDH-coupled NADH fluorescence (FDH is formaldehyde dehydrogenase); Potency, µM (highest dose often 57.1 µM), for the others: top-dose activity change, negative = inhibition, most hits filed as inhibitors; actives 1.6% (n = 230,000); active means well fitted inhibition curve with a large enough effect, not every such curve was filed as active; inconclusive means small, poorly fitted or top-dose-only effect, or another doubt; inactive means no such curve, though single readings can be large or run the other way;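 further: potency means the concentration at half of the fitted maximal effect; 0% = wells with enzyme and -100% = buffer wells without enzyme; nearly all actives have a fitted effect of over 50% in size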
ALDH1A1 block: blocks purified human ALDH1A1 activity | P00352 | Purified ALDH1A1, NADH fluorescence, propionaldehyde substrate | Potency, µM (titrated, usually from 75.3 µM), without a hit: at the highest dose activity, negative = inhibition, most hits filed as inhibitors | actives 7.3% (n = 220,000); active means well fitted inhibition curve with a large enough effect, not every such curve was filed as active; inconclusive means small, poorly fitted or top-dose-only effect, or another doubt; inactive means no such curve, though single readings can be large or run the other way;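 further: potency means the concentration at half of the fitted maximal effect; plate controls were no enzyme wells and a reference inhibitor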
G9a inh: blocks human histone lysine methyltransferase G9a | G9a H3K9 monomethylation, AlphaScreen, 2 h | Potency, µM (top dose mostly 102 µM), inactives show at the top dose activity, negative = inhibition, usual class: inhibitors | actives 8.8% (n = 350,000) | AID 504332; further: potency means the concentration at half of the fitted maximal effect; on the % scale 0 is the no-effect control and ±100 the full control effect; nearly all actives have a fitted effect of over 75% in size
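G9a (20 nM) was preincubated 15 min with compound, then reacted 2 h at room temperature with 500 nM biotin-H3K9 peptide and 20 µM SAM. Monomethyl-H3K9 detected by AlphaScreen using anti-H3K9me1 antibody.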
Sfp PPTase inh: inhibitors of Bacillus subtilis Sfp phosphopantetheinyl transferase. Biochemical Sfp PPTase activity, qHTS. 310,000 compounds, 3.5% hits. Q9F4F7. Potency, µM, for the others: max response, negative = inhibition, usual class: inhibitors; active = well fitted inhibition curve with a large enough effect; inconclusive = small, poorly fitted or top-dose-only effect, or another doubt; inactive = no such curve, though single readings can be large or run the other way;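 note: the enzyme is Sfp with the accession as filed and its product quenches rhodamine fluorescence; potency is the fitted concentration of half-maximal effect; 0% = enzyme reaction without inhibitor and -100% = no enzyme wells; top concentration of the series not given in the record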
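Compounds were incubated with enzyme (final 15 nM) for 15 min at room temperature before substrate addition started the reaction. Fluorescence at 525 nm excitation, 598 nm emission was recorded immediately and after 30 minutes.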
Lamin A splicing: LMNA splicing modulation. actives 0.01% (n = 200,000). HeLa LMNA splicing GFP/RFP minigene ratio, 48 h. AID 1487. Potency, µM (doses to about 46.1 µM), for inactives: at the highest dose ratio change, negative = inhibition, most hits filed as inhibitors; active means well fitted inhibition curve with a large enough effect in the signal ratio, with a control signal flat, not every such curve was filed as active; inconclusive means small, poorly fitted or top-dose-only effect, or effect the other way, or a change in a side signal; the % refers to the signal ratio; further: potency means the concentration at half of the fitted maximal effect; on the % scale 0 is the no-effect control and ±100 the full control effect
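S3 HeLa stable clones carrying a lamin A-EGFP splicing minigene plus DsRed2 were seeded at 600 cells/well in Opti-MEM with 2% FBS, pin-dosed and incubated 48 h at 37°C. Acumen cytometry (488 nm) gave the GFP/RFP total-intensity ratio.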
miR-21 reporter: raises the signal of a miR-21 reporter. Potency, µM (highest dose often 38.3 µM), without a hit: top-dose reporter change, positive = more light. 340,000 tested, under 10 active. HeLa miR-21 FLuc reporter, luciferase, 48 h; active = well fitted rising curve with a large enough effect; inconclusive = small, poorly fitted or top-dose-only effect; inactive = no such curve, though single readings can be large or run the other way;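 further: % of control where 0% means no effect; miR-21 action dims this reporter so a rising signal means less miR-21 action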
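Luminescence from a firefly luciferase reporter carrying a miR-21 binding site downstream, stably expressed under a CMV promoter in HeLa cells that make miR-21 endogenously, reports miRNA modulation after 48 h compound exposure up to approximately 40uM final.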
* = called active by the depositor; ? = inconclusive; / = not tested or not shown; ! = a repeat was not active; [ ] = dose if it differs, or a comment. Shown are actives, neighbours in structure and some others; about 13% of the full set was active somewhere. Unless noted, the call rests on the fitted dose curve; in most records, active means well fitted curve in the direction sought with a large enough effect; inconclusive means small, poorly fitted or top-dose-only effect, or another doubt; inactive means no such curve, though single readings can be large; an effect the other way counts as inactive or inconclusive.

The first two entries, ahead of the listing:
Keys – A = KDM4E inh; B = ALDH1A1 block; C = G9a inh; D = Sfp PPTase inh; E = Lamin A splicing; F = miR-21 reporter
structure: NCCCC[C@@H]1NC(=O)[C@H](CCC(=O)O)NC(=O)c2cc([N+](=O)[O-])cc(I)c2SC[C@@H](C(=O)NCC(N)=O)NC1=O
  A: -23.1% | B: 4.3% | C: 3.16µM* | D: 5.4% | E: -2.0% | F: 0.1%

structure: NCCCC[C@@H]1NC(=O)c2cc([N+](=O)[O-])cc(I)c2SC[C@@H](C(N)=O)NC(=O)[C@H](Cc2ccc(O)cc2)NC1=O
  A: 4.1% | B: -12.4% | C: 35.5µM* | D: -21.8% | E: -3.9% | F: -1.9%

This part in full, from the start:
Keys – A = KDM4E inh; B = ALDH1A1 block; C = G9a inh; D = Sfp PPTase inh; E = Lamin A splicing; F = miR-21 reporter
structure: NCCCC[C@@H]1NC(=O)[C@H](CCC(=O)O)NC(=O)c2cc([N+](=O)[O-])cc(I)c2SC[C@@H](C(=O)NCC(N)=O)NC1=O
  A: -23.1% | B: 4.3% | C: 3.16µM* | D: 5.4% | E: -2.0% | F: 0.1%

structure: NCCCC[C@@H]1NC(=O)c2cc([N+](=O)[O-])cc(I)c2SC[C@@H](C(N)=O)NC(=O)[C@H](Cc2ccc(O)cc2)NC1=O
  A: 4.1% | B: -12.4% | C: 35.5µM* | D: -21.8% | E: -3.9% | F: -1.9%

structure: Cc1cnc(CNc2ncnc3ccc(-c4cccc(C#N)c4)cc23)cn1
  A: -14.8% | B: -12.8% | C: / | D: 3.7% | E: 14.9% | F: /

structure: Cc1cccc(N2CCN(C3(c4ccccc4)C(=O)c4ccccc4C3=O)CC2C)c1 (stereo unspecified)
  A: / | B: / | C: 8.91µM* | D: / | E: / | F: 0.7%

structure: Cc1ccc(C)c(N2CCN(C3(c4ccccc4)C(=O)c4ccccc4C3=O)CC2)c1
  A: / | B: / | C: 7.08µM* | D: / | E: / | F: 2.0%

structure: COc1ccc(NC(=O)CS(=O)CC(=O)Nc2cccc3cccnc23)cc1 (stereo unspecified)
  A: / | B: / | C: 5.3% | D: 1.7% | E: / | F: 6.6%

structure: Brc1ccc(C2=Nn3c(Cn4nnc5ccccc54)nnc3SC2)cc1
  A: 1.0% | B: / | C: / | D: 28.2µM* | E: / | F: 2.3%

structure: O=C1NC(=S)S/C1=C\C=C\c1ccc([N+](=O)[O-])o1
  A: 20µM* | B: / | C: / | D: 44.7µM* | E: / | F: ?

structure: O=C1CN(/N=C\c2ccc([N+](=O)[O-])o2)C(=O)N1
  A: -28.2%[25.5 µM] | B: -13.9%[20.9 µM] | C: -22.7%[21.5 µM] | D: -12.0% | E: ? | F: /

structure: CCC(=O)NC1=C(Cl)C(=O)C(NC(=O)CC)=C(Cl)C1=O
  A: ? | B: ? | C: 0.251µM* | D: 0.562µM* | E: ? | F: ?

structure: CN(C(=O)c1cc2c(=O)oc3ccccc3c2s1)c1ccc(F)cc1
  A: / | B: / | C: ? | D: / | E: / | F: -1.2%

structure: COc1cc(N=c2ssnc2Cl)cc(OC)c1OC
  A: 17.8µM* | B: 2.82µM* | C: ? | D: 14.1µM* | E: 2.7% | F: 29.3%

structure: Clc1nssc1=Nc1ccccc1
  A: 10µM* | B: 1.58µM* | C: 2µM* | D: 20µM* | E: / | F: -12.7%

structure: Fc1ccc(N=c2ssnc2Cl)c(F)c1
  A: ? | B: 2.51µM* | C: 1.58µM* | D: 14.1µM* | E: ? | F: -2.4%

structure: N#Cc1ccc(N=c2ssnc2Cl)cc1
  A: ? | B: 1.58µM* | C: ? | D: 8.91µM* | E: ? | F: -6.2%

structure: CCOc1ccccc1C(=O)NCc1ccc2c(c1)CCN2C(C)=O
  A: / | B: / | C: -2.5%[59 µM] | D: / | E: ? | F: -3.9%

structure: CC1(C)C(=O)C=C[C@@]2(C)C1C=C[C@@]1(C)C2CC[C@@]2(C)C(c3ccoc3)OC(=O)C3OC312 (stereo partly specified)
  A: -6.4% | B: -8.8% | C: -36.1%[2.33 µM] | D: 0.9% | E: / | F: /

structure: COc1ccc(N=Cc2sc3ccccc3c2Cl)cc1
  A: -29.0% | B: -3.7% | C: -32.3%[59 µM] | D: -11.2% | E: -5.6% | F: -29.7%

structure: O=C1CSC(=Nc2ccc(Cl)cc2)N1
  A: / | B: / | C: / | D: 22.8% | E: / | F: -3.7%

structure: COc1ccc(N=c2ssnc2Cl)cc1
  A: 20µM* | B: 1.78µM* | C: 1.26µM* | D: 8.91µM* | E: -6.6% | F: -16.8%

structure: Clc1ccc(N=c2ssnc2Cl)cc1
  A: 10µM* | B: 1.12µM* | C: 1.58µM* | D: 3.98µM* | E: ? | F: 1.7%

structure: CCOC(=O)c1ccc(N=c2ssnc2Cl)cc1
  A: ? | B: 2µM* | C: 1.78µM* | D: -103.2% | E: / | F: -16.0%

structure: Cc1ccc(CN2C(=O)c3oc4ccc(C)cc4c(=O)c3C2c2ccc(O)cc2)cc1 (stereo unspecified)
  A: / | B: / | C: ? | D: / | E: / | F: -5.1%

structure: Cc1ccc(SC2CC(=O)N(c3ccc4c(c3)OCCO4)C2=O)cc1 (stereo unspecified)
  A: 8.3% | B: 2.51µM* | C: ? | D: 15.2% | E: -20.7%[46 µM] | F: 10.0%

structure: Cc1ccc(N2C(=O)CC(Sc3cccs3)C2=O)cc1 (stereo unspecified)
  A: -1.3% | B: 2.24µM* | C: 35.5µM* | D: -8.5% | E: -7.6%[46 µM] | F: 2.8%

structure: Cc1ccccc1C(=O)NNC1CC(=O)N(c2ccc3c(c2)OCCO3)C1=O (stereo unspecified)
  A: -4.1% | B: -5.3% | C: 3.4%[59 µM] | D: 16.7% | E: -5.9% | F: -4.8%

structure: Cc1ccc(N2C(=O)CC(Sc3nccc(C)n3)C2=O)cc1 (stereo unspecified)
  A: / | B: / | C: ? | D: 10.2% | E: / | F: -0.5%

structure: CCOc1cc(C2c3c(oc4ccccc4c3=O)C(=O)N2Cc2ccc3c(c2)OCO3)ccc1O (stereo unspecified)
  A: / | B: / | C: 4.0%[59 µM] | D: / | E: / | F: -0.1%

structure: COC(=O)CCCC1=CC2=CC(=O)C(C)(OC(=O)c3cccs3)C(=O)C2=CN1CCc1c[nH]c2ccccc12 (stereo unspecified)
  A: 5.62µM*! | B: -12.4%[13.5 µM] | C: 10.0%[12.7 µM] | D: 0.3% | E: 0.6%[9.22 µM] | F: 2.4%

structure: COC(=O)CCCC1=CC2=C(c3ccccc3)C(=O)C(C)(OC(=O)C3CCCC3)C(=O)C2=CN1CCc1c[nH]c2ccccc12 (stereo unspecified)
  A: ? | B: 3.16µM* | C: -4.4%[12.7 µM] | D: ? | E: -15.1%[9.22 µM] | F: 7.0%

structure: COC(=O)CCCC1=CC2=C(c3ccccc3)C(=O)C(C)(OC(=O)C3CCCC3)C(=O)C2=CN1CCN1CCOCC1 (stereo unspecified)
  A: 3.16µM*! | B: -3.7%[13.5 µM] | C: 15.6%[12.7 µM] | D: -5.4% | E: -6.6%[9.22 µM] | F: 0.9%

structure: CCCCC1=CC2=CC(=O)C(C)(OC(=O)CC)C(=O)C2=CN1CCc1c[nH]c2ccccc12 (stereo unspecified)
  A: 4.4%[11.4 µM] | B: -4.4%[13.5 µM] | C: 7.6%[59 µM] | D: 14.6% | E: 22.6%[9.22 µM] | F: -0.5%

structure: COc1ccc(NC(=O)c2cnc[nH]2)cc1
  A: / | B: / | C: 26.1%[59 µM] | D: / | E: / | F: 6.0%

structure: Cc1nn(C)c(C)c1CN(C(=O)C1CCC(=O)N(C2CCCCCC2)C1)C(C)C (stereo unspecified)
  A: / | B: / | C: 19.3%[0.0925 µM] | D: 20.4% | E: / | F: -25.4%

structure: COc1ccc(-c2cnc(NCc3ccc(C)cc3)n2C)cc1
  A: / | B: / | C: 3.55µM* | D: / | E: / | F: -0.1%

structure: COc1cccc(CNc2ncc(-c3ccc(Br)cc3)n2C)c1
  A: / | B: / | C: 20µM* | D: / | E: ? | F: 29.7%

structure: COc1ccc(CNc2ncc(-c3ccc(Br)cc3)n2C)cc1OC
  A: / | B: / | C: / | D: -18.3% | E: / | F: 1.2%

structure: Cn1c(-c2ccccc2)cnc1NCc1ccccc1
  A: / | B: / | C: 18.3%[0.501 µM] | D: -9.6% | E: / | F: -7.9%

structure: Cc1ccc(-c2cnc(NCc3ccc(C(F)(F)F)cc3)n2C)cc1
  A: / | B: / | C: 3.55µM* | D: / | E: / | F: 12.9%

structure: Cn1c(-c2ccc(Br)cc2)cnc1NCc1ccc(C#N)cc1
  A: / | B: / | C: 25.1µM* | D: -13.8% | E: / | F: 8.6%

structure: Cc1ccc(C2NC(=O)c3ccccc3O2)cc1 (stereo unspecified)
  A: / | B: / | C: -2.5% | D: 8.2% | E: / | F: -4.0%

structure: COc1ncc2nc(-c3cc(F)cc(F)c3)c(=O)n(CCC#N)c2n1
  A: / | B: ? | C: 3.1%[12.7 µM] | D: 3.1% | E: / | F: /

structure: NS(=O)(=O)c1ccc(CCNC(=O)Cn2c(=O)c3cccn3c3ccc(F)cc32)cc1
  A: / | B: / | C: -26.2%[59 µM] | D: / | E: 25.4%[46 µM] | F: -5.1%

structure: CC(C)c1ccc(C(=O)NC(=S)Nc2ccc3[nH]c(=O)[nH]c3c2)cc1
  A: -1.0% | B: / | C: / | D: -10.4% | E: / | F: -6.0%

structure: COc1cc2c(cc1OC)C(=O)N(C)CC2
  A: 3.5% | B: 6.9% | C: 4.2%[59 µM] | D: 22.7% | E: / | F: 2.2%

structure: COc1cc2cc3c4c(cc(OC)c(OC)c4c2cc1OC)CCN3C
  A: ? | B: ? | C: / | D: 70.8µM* | E: / | F: /

structure: COc1ccc(CNC(=O)c2cccc(N3CCCS3(=O)=O)c2)cc1OC
  A: / | B: / | C: 7.3%[59 µM] | D: / | E: / | F: 25.9%

High-throughput results deposited in PubChem by National Center for Advancing Translational Sciences (NCATS).
